# Legend:
# [1] = target: T1, human opioid receptor-like (ORL-1) (Homo sapiens (Human), UniProt P41146); assay: ORL-1 receptor [35S]GTPγS functional binding assay; settings: for EC50: read-out: GTP EC50 ORL-1, [35S]GTPγS, HEK-293 membranes; for GTP Emax ORL-1: maximal effect relative to nociceptin
# [2] = target: μ-opioid receptor (Homo sapiens (Human), UniProt P35372); assay: In vitro μ-opioid receptor binding assay ([3H]-diprenorphine displacement); settings: read-out: Ki [Average ± Std Deviation] Opioid Receptor μ; 0.2 nM [3H]-diprenorphine
# [3] = target: T2, kappa opioid receptor (Homo sapiens (Human), UniProt P41145); assay: In vitro κ-opioid receptor binding assay ([3H]-U69,593 displacement); settings: read-out: Ki [Average ± Std Deviation] Opioid Receptor κ; membranes from recombinant HEK-293 cells; 0.4-0.8 nM [3H]-U69,593
# [4] = target: T2, kappa opioid receptor; assay: κ-opioid receptor [35S]GTPγS functional assay; settings: maximal effect relative to U69,593
# [5] = target: T1, human opioid receptor-like (ORL-1); assay: In vitro ORL-1 receptor binding assay ([3H]-nociceptin displacement); settings: read-out: Ki [Average ± Std Deviation] ORL-1; membranes from recombinant HEK-293 cells; 0.1 nM [3H]-nociceptin
# [6] = target: delta opioid receptor (Homo sapiens (Human), UniProt P41143); assay: In vitro δ-opioid receptor binding assay ([3H]-Naltrindole displacement); settings: read-out: Ki [Average ± Std Deviation] Opioid Receptor δ; recombinant receptor expressed in CHO-K1 cells; 0.2 nM [3H]-Naltrindole
Compound,EC50 [1] [nM],GTP Emax ORL-1 [1] [%],Ki [2] [nM],Ki [3] [nM],GTP Emax Opioid Receptor κ [4] [%],Ki [5] [nM],Ki [6] [nM]
O=c1[nH]c2ccccc2n([C@H]2C[C@H]3C=C[C@@H](C2)N3C2/C=C\CCCCC2)c1=O (some centres unmarked) [listing 1 of 2 here],36,,,,,,
O=c1[nH]c2ccccc2n([C@@H]2C[C@H]3C=C[C@@H](C2)N3C2/C=C\CCCCC2)c1=O (some centres unmarked) [listing 1 of 2 here],,82,15800,682,22,56,22800
O=c1[nH]c2ccccc2n([C@@H]2C[C@H]3C=C[C@@H](C2)N3C2/C=C\CCCCC2)c1=O (some centres unmarked) [listing 2 of 2 here],830,,,,,,
O=c1[nH]c2ccccc2n([C@H]2C[C@H]3C=C[C@@H](C2)N3C2/C=C\CCCCC2)c1=O (some centres unmarked) [listing 2 of 2 here],,62,1380,119,17,5.6,23400

# Source: patent publication US8637502B2, “2,3,4,5-tetrahydro-benzo{B}{1,4}diazepine-comprising compounds of formula(III) for treating pain” (dated 2014)
